Measurements published in patent US20090226395A1, “Pharmaceutical compositions of beta-lapachone and beta-lapachone analogs with improved tumor targeting potential” (ArQule, Inc., priority 2004, published 2009).

Assay: Hydrolytic release of β-lapachone or ketal from poly-L-glutamate conjugates, monitored by HPLC
Assay type: physicochemical
Excerpt: […] The complete release of 2,2-dimethyl-3,4-dihydro-2H-benzo[h]chromene-5,6-dione from the conjugate is achieved within 2-3 days as monitored by HPLC. In addition to the 2,2-dimethyl-3,4-dihydro-2H-benzo[h]chromene-5,6-dione peak, two additional peaks are detected in the HPLC chromatogram. These peaks are believed to be products of the degradation of 2,2-dimethyl-3,4-dihydro-2H-benzo[h]chromene-5,6-dione and an alternate hydrolysis product of conjugate. The concentration of released 2,2-dimethyl-3,4-dihydro-2′-1-benzo[h]chromene-5,6-dione is calculated by comparing the peak areas with the previously obtained calibration curve of 2,2-dimethyl-3,4-dihydro-2H-benzo[h]chromene-5,6-dione standard. […] Loading on the polymer is then calculated as follows: […]
The conjugate is dissolved in water at a concentration of about 0.3 mg/ml and sonicated to facilitate dissolution. […] The concentration of released 2,2-dimethyl-3,4-dihydro-2H-benzo[h]chromene-5,6-dione is determined by HPLC and the quantity calculated by comparing the peak areas with a previously obtained calibration curve of 2,2-dimethyl-3,4-dihydro-2H-benzo[h]chromene-5,6-dione standard, as described above in Example 10. […]

(2,2-dimethyl-5-oxo-3,4-dihydro-2H,5H-spiro[benzo[h]chromene-6,2′-[1,3]dioxolan]-4′-yl)methyl γ-poly-L-glutamate sodium
time for release of the ketal 4′-(hydroxymethyl)-...-dioxolan]-5-one from the conjugate (0.1 M NaOH, about 1 mg/ml): about 20 min

N-{2-[(4-{[(6Z)-2,2-dimethyl-5-oxo-3,4-dihydro-2H-benzo[h]-chromen-6(5H)-ylidene]amino}benzoyl)oxy]ethyl}γ-poly-L-glutamate [Sample A]
time for hydrolysis of β-lapachone from the conjugate (ten-fold dilution into 1 M HCl): ~4 min
